## Yeast mating assay 1: variants of the scFv Ab-14

Data: MIT Lincoln Laboratory AlphaSeq set, Engelhart et al. 2022, doi:10.1038/s41597-022-01779-4, as distributed in FLAb.

Antigen: PDVDLGDISGINAS, a 14-residue peptide of the SARS-CoV-2 spike HR2 region.

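The library (AAYL49) carries one to three amino acid substitutions per variant, with no insertions or deletions. Affinity was read by AlphaSeq, a pooled yeast mating assay with surface-displayed partners. Binding brings cells together so that they mate, and sequencing counts the barcode pairs among the diploids. A regression on co-assayed BCL2-family reference pairs converts the normalised counts of each replicate to an apparent Kd. Each pool was mated in three replicate cultures.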

Ab-14 is the parent antibody, in scFv form: VH, then the linker GGGGSGGGGSGGGGS, then VL. The light chain is unchanged in all variants.
VH: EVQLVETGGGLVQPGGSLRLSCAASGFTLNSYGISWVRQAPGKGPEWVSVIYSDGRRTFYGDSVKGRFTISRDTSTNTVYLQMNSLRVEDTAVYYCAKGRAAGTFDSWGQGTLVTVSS
VL: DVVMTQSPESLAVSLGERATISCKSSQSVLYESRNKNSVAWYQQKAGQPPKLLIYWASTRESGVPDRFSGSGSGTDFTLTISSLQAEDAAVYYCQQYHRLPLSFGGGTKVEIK

Changes read parent residue, position, new residue, counted from the first residue of the VH shown.
Every variant below is changed at S107 of the VH (sequential numbering).
The Kd shown is the geometric mean over detected replicates; a lower Kd is a better binder.
An entry "no signal" has no value in the source: the pair was not observed among the diploids in any replicate. This suggests poor binding but is not conclusive.
Empty control strains, which show no peptide, gave a signal in 15% of pairings with library AAYL49; the median was 11 µM and 95% of these signals were weaker than 680 nM. No background was subtracted.
In this assay the parent's reference entry averaged 4.4 nM; its copy inside this library read 13 µM (one replicate of three).

| changes | Kd (apparent) | replicates with signal |
|---|---|---|
| G61W+S107R | 2.0 µM | 1 of 3 |
| Y32V+I34G+S107D | no signal | 0 of 3 |
| N30C+I51E+S107Y | 260 nM | 1 of 3 |
| S107R | 48 nM | 3 of 3 |
| G55S+S107L | no signal | 0 of 3 |
| V50R+K65R+S107A | 11 µM | 1 of 3 |
| D54W+R100C+S107E | 12 µM | 2 of 3 |
| S31A+T58W+S107Q | 4.2 µM | 1 of 3 |
| T58N+G99R+S107N | no signal | 0 of 3 |
| I34A+D106M+S107F | no signal | 0 of 3 |
| S107C | 180 nM | 3 of 3 |
| T58N+G61I+S107H | 5.3 nM | 3 of 3 |
| G26K+G61K+S107G | 13 nM | 3 of 3 |
| I34N+G99I+S107H | no signal | 0 of 3 |
| D62N+S107P | 1.1 µM | 1 of 3 |
| I51W+S107F | no signal | 0 of 3 |
| G33Y+R100Q+S107F | no signal | 0 of 3 |
| Y32T+G61I+S107W | 540 nM | 3 of 3 |
| V50D+S63R+S107T | no signal | 0 of 3 |
| G33C+S63E+S107I | no signal | 0 of 3 |
| N30G+R57A+S107W | 190 µM | 1 of 3 |
| Y32Q+R57C+S107F | 28 µM | 3 of 3 |
| Y52K+S53N+S107G | no signal | 0 of 3 |
| D62R+D106Q+S107G | 110 µM | 3 of 3 |
| Y52I+Y60M+S107A | no signal | 0 of 3 |
| I34D+G55R+S107M | 18 µM | 1 of 3 |
| T58W+A102G+S107K | 6.1 µM | 1 of 3 |
| I51Y+S53A+S107C | no signal | 0 of 3 |
| Y32S+Y60L+S107V | 34 µM | 1 of 3 |
| D54Q+G61T+S107D | no signal | 0 of 3 |
| S31P+S53E+S107C | 61 µM | 2 of 3 |
| G33V+D106R+S107W | no signal | 0 of 3 |
| Y32V+A102L+S107R | 120 µM | 2 of 3 |
| Y52M+F105V+S107C | no signal | 0 of 3 |
| G26A+F105H+S107N | 2.5 µM | 2 of 3 |
| G33K+Y52H+S107Y | no signal | 0 of 3 |
| Y60G+K65N+S107Q | 10 µM | 1 of 3 |
| F59Q+G99L+S107V | 10 µM | 1 of 3 |
| I51H+G103Y+S107L | no signal | 0 of 3 |
| I51E+D54H+S107L | 1.7 µM | 1 of 3 |
| A101D+S107F | 29 nM | 3 of 3 |
| G33D+R56Y+S107D | 390 µM | 1 of 3 |
| G26D+T104E+S107Q | 590 nM | 1 of 3 |
| S31G+A101L+S107M | 21 nM | 3 of 3 |
| I34T+I51V+S107L | 49 µM | 3 of 3 |
| S63V+R100C+S107T | 340 nM | 3 of 3 |
| G55T+R57M+S107L | no signal | 0 of 3 |
| G33K+S107V | no signal | 0 of 3 |
| I51G+T58W+S107Y | no signal | 0 of 3 |
| Y32V+I34G+S107E | no signal | 0 of 3 |
| S31T+S107P | 4.5 µM | 1 of 3 |
| S35G+S63W+S107A | 550 µM | 1 of 3 |
| V50S+D54N+S107D | 190 µM | 1 of 3 |
| S35K+A101S+S107L | no signal | 0 of 3 |
| K65A+S107N | 29 nM | 3 of 3 |
| D106H+S107T | 3.3 nM | 3 of 3 |
| I34R+S63V+S107M | no signal | 0 of 3 |
| G55D+S107P | no signal | 0 of 3 |
| I51W+F59M+S107T | no signal | 0 of 3 |
| G33W+D54K+S107Q | no signal | 0 of 3 |
| Y60L+T104L+S107I | 71 µM | 1 of 3 |
| S35L+R57V+S107R | 890 µM | 1 of 3 |
| T28L+L29V+S107W | 1.1 µM | 3 of 3 |
| I34S+K65D+S107I | 2.7 µM | 1 of 3 |
| S53K+S107P | 16 µM | 2 of 3 |

For reference, 8 entries of the list once more:

{"changes": "G33C+S63E+S107I", "Kd (apparent)": "no signal", "replicates with signal": "0 of 3"}
{"changes": "T28L+L29V+S107W", "Kd (apparent)": "1.1 µM", "replicates with signal": "3 of 3"}
{"changes": "S53K+S107P", "Kd (apparent)": "16 µM", "replicates with signal": "2 of 3"}
{"changes": "I51W+F59M+S107T", "Kd (apparent)": "no signal", "replicates with signal": "0 of 3"}
{"changes": "D62R+D106Q+S107G", "Kd (apparent)": "110 µM", "replicates with signal": "3 of 3"}
{"changes": "A101D+S107F", "Kd (apparent)": "29 nM", "replicates with signal": "3 of 3"}
{"changes": "T58W+A102G+S107K", "Kd (apparent)": "6.1 µM", "replicates with signal": "1 of 3"}
{"changes": "Y52M+F105V+S107C", "Kd (apparent)": "no signal", "replicates with signal": "0 of 3"}